The test deals with Nuclear factor NF-kappa-B complex (Homo sapiens) (UniProt Q00653+P19838+Q04206). As to the kind of experiment: Inhibition of NF-kappaB (unknown origin) at 10 uM relative to control. It counts as protein-complex assay.

Protein sequences, listed by entry. Tags and fused reporters are not part of them. Lines headed by an entry give the natural chain unless they say otherwise; changes in a name come on top.
UniProt Q00653: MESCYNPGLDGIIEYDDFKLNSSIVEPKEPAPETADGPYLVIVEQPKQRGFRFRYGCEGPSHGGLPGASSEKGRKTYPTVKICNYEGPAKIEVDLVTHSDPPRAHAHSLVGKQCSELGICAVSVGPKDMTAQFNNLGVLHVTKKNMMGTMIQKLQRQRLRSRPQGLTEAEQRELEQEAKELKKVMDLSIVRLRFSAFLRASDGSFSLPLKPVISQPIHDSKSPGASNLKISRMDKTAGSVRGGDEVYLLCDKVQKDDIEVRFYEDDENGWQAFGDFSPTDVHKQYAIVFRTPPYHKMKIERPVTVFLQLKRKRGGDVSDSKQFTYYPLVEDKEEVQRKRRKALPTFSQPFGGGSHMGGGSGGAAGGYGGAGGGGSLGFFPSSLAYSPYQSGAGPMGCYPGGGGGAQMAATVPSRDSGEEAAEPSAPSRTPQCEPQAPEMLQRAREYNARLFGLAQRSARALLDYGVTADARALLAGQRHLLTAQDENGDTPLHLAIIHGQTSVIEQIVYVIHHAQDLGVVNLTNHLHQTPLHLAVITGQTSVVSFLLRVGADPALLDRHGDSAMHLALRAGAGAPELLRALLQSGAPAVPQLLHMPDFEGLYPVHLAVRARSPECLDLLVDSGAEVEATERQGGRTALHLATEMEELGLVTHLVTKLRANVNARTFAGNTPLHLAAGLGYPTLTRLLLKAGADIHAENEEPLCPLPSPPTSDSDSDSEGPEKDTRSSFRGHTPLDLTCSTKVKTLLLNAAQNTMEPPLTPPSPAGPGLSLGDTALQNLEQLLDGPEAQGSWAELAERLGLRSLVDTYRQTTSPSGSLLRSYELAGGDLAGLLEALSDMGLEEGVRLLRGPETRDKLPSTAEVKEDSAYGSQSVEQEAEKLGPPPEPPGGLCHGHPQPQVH
UniProt P19838: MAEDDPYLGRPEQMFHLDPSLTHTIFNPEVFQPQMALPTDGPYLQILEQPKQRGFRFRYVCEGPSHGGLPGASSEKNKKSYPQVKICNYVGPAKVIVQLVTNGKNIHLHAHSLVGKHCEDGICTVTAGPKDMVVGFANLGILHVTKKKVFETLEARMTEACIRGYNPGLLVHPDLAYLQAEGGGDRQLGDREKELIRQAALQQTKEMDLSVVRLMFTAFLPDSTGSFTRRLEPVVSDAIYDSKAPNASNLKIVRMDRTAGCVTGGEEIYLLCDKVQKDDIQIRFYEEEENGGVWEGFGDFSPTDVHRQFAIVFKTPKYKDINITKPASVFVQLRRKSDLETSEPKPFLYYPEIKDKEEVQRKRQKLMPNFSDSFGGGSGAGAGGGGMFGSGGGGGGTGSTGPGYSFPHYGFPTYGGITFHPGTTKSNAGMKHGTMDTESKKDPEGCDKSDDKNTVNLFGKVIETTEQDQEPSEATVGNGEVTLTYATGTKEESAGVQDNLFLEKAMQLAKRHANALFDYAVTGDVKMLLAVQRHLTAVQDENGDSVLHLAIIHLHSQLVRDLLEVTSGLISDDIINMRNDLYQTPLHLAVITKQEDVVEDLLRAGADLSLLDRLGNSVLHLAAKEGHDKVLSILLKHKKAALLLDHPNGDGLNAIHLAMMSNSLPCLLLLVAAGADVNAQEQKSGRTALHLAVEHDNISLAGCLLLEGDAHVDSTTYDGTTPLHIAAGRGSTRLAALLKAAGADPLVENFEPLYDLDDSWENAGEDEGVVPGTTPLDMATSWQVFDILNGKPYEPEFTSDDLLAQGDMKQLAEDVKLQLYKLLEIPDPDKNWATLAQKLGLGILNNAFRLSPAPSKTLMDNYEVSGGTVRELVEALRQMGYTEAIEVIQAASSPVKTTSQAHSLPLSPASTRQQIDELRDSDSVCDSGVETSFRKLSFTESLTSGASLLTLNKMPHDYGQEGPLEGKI
UniProt Q04206, whole entry, looked up: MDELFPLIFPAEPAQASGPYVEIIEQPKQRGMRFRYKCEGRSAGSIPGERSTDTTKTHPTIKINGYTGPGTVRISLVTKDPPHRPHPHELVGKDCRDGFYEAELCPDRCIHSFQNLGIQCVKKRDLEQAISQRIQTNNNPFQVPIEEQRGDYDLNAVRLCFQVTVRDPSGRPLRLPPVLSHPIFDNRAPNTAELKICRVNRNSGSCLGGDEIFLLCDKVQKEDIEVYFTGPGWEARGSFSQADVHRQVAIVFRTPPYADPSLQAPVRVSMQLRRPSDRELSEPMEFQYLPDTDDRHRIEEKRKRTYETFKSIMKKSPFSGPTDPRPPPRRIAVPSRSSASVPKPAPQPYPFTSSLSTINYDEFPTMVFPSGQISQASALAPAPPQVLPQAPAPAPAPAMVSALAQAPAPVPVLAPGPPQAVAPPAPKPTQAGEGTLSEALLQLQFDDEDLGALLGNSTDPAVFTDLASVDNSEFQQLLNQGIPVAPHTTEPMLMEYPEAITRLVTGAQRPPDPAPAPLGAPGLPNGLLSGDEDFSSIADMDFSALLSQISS

The structures appear in SMILES notation.

`Cc1c(-c2ccc(NC(=O)c3c(F)cccc3Cl)cc2)cccc1-c1nn(C)c(=O)o1` had an inhibition of 5%. `Cc1c(-c2ccc(NC(=O)c3c(F)cccc3F)cc2)cccc1-c1nn(C)c(=O)o1` showed an inhibition of 8%.

As a reminder, the inhibition is the change of the read-out against control, counted positive when it falls.
